Values quoted from earlier work in patent publication US20100068786A1, “METHODS AND COMPOSITIONS FOR REVERSING P-GLYCOPROTEIN MEDICATED DRUG RESISTANCE” (priority 2008, published 2010).

Amino acid sequences for entries named in this document (tags omitted).
UniProt P21447, whole entry: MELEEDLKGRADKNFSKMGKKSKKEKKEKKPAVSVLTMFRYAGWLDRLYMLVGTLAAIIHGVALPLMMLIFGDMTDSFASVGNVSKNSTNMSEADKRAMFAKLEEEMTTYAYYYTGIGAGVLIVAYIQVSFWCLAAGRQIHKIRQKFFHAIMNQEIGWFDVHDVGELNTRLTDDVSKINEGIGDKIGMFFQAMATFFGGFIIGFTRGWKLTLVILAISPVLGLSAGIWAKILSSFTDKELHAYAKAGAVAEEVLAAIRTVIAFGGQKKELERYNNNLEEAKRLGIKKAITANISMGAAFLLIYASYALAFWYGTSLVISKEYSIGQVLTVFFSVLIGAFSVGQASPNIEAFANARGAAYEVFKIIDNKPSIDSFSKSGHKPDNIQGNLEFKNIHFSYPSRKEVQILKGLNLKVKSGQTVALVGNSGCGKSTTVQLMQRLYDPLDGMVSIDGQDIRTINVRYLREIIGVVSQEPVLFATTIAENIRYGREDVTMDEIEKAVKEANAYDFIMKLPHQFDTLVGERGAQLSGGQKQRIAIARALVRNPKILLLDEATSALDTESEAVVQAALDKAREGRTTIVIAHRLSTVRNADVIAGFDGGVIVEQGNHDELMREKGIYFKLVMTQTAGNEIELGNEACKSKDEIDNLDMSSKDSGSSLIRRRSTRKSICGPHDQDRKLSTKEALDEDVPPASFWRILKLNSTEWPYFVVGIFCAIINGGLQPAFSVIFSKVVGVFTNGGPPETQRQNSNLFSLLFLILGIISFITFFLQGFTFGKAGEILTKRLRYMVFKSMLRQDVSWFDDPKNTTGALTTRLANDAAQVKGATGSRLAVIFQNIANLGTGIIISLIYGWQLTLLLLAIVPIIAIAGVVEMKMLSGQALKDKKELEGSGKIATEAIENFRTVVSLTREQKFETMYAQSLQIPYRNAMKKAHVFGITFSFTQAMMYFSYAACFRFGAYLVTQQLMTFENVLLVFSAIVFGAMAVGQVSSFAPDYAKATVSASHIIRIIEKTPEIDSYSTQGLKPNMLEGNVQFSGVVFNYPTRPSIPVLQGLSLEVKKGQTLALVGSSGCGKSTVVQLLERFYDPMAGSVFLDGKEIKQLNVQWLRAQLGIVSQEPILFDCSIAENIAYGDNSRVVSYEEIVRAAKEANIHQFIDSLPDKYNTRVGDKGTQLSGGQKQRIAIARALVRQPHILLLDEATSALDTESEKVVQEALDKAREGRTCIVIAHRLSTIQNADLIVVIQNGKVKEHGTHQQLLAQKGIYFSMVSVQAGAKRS

Biological target: P-gp (Mus musculus, UniProt P21447)
Conditions: mdr1a(−/−) knock out mice vs control wild-type mice; cited from earlier work

SMILES: Cc1nc2n(c(=O)c1CCN1CCC(c3noc4cc(F)ccc34)CC1)CCCC2 [risperidone]
- increase of brain-to-serum ratio: over 10 times
